The chains behind the UniProt entries cited, without tags or fusion partners. A line that says so, or that is headed by a name, gives the form on record, which may keep a tag or linker. Residues count along the entry.
UniProt Q9Y233, 290-1055 with tags or gaps limits assumed: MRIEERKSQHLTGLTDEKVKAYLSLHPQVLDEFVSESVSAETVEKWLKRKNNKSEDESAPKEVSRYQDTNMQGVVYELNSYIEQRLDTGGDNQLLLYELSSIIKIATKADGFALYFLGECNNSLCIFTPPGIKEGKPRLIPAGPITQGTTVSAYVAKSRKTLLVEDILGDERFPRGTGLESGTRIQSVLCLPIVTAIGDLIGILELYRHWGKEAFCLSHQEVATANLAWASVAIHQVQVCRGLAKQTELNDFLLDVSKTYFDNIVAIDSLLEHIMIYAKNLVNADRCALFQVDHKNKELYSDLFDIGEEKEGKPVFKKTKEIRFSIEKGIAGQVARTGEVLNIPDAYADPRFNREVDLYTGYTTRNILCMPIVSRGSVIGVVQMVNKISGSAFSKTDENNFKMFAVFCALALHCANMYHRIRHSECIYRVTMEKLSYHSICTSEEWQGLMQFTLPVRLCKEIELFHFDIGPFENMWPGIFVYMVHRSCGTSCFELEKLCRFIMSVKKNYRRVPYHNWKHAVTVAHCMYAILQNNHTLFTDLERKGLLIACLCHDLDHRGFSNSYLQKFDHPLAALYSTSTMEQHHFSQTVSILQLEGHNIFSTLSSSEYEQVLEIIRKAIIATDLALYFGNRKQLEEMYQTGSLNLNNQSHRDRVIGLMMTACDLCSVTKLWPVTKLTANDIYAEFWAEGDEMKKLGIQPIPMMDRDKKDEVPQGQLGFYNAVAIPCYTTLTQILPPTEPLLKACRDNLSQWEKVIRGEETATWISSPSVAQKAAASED

In patent US9540384B2, “Pyrrolidino heterocycles” (Hoffmann-La Roche Inc., priority 2012, dated 2017):

Target: human PDE10A full length (Homo sapiens (Human), UniProt Q9Y233)
Experiment: human PDE10A full length Scintillation Proximity Assay (SPA)
Conditions: PDE10A enzyme, 50 nM cGMP + 50 nM [3H]-cGMP, 20 minutes at room temperature
Method: The following test was carried out in order to determine the activity of the compounds of the present invention. PDE10 activity of the compounds of the present invention was determined using a Scintillation Proximity Assay (SPA)-based method similar to the one previously described (Fawcett, L. et al., Proc Natl Acad Sci USA (2000) 97(7):3702-3707).
The human PDE10A full length assay was performed in 96-well micro titer plates. The reaction mixture of 50 μl contained 20 mM HEPES pH=7.5/10 mM MgCl2/0.05 mg/ml BSA (Sigma cat. #A-7906), 50 nM cGMP (Sigma, cat. #G6129) and 50 nM [3H]-cGMP (GE Healthcare, cat. #TRK392 S.A. 13.2 Ci/mmol), 3.75 ng/well PDE10A enzyme (Enzo Life Science, Lausen, Switzerland cat #SE-534) with or without a specific test compound. A range of concentrations of the potential inhibitor was used to generate data for calculating the concentration of inhibitor resulting in 50% of the effect (e.g. IC50, the concentration of the competitor inhibiting PDE10A activity by 50%). Non-specific activity was tested without the enzyme. The reaction was initiated by the addition of the substrate solution (cGMP and [3H]-cGMP) and allowed to progress for 20 minutes at room temperature. […] Afterwards, radioactive counts were measured on a Perkin Elmer TopCount Scintillation plate reader.

Clc1ccc2nc(OCc3cccc(N4CCCC4)n3)nc(OC3CCOCC3)c2c1
IC50: 94 nM
